Protein sequences, listed by entry. Tags and fused reporters are not part of them.
UniProt P58028, whole entry: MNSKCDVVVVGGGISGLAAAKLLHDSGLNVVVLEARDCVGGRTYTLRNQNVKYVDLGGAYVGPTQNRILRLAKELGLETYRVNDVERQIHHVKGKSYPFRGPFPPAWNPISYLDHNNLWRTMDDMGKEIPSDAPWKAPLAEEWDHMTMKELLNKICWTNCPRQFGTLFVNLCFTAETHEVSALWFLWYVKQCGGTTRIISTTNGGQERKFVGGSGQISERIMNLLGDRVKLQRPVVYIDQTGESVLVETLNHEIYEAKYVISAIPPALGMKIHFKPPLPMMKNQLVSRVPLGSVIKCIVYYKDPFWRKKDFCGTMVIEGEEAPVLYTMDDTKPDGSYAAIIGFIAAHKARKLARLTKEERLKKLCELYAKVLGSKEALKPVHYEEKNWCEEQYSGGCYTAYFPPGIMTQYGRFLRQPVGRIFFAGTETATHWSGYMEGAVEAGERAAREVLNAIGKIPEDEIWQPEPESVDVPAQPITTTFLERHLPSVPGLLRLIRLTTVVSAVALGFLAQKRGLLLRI
UniProt P23977, whole entry: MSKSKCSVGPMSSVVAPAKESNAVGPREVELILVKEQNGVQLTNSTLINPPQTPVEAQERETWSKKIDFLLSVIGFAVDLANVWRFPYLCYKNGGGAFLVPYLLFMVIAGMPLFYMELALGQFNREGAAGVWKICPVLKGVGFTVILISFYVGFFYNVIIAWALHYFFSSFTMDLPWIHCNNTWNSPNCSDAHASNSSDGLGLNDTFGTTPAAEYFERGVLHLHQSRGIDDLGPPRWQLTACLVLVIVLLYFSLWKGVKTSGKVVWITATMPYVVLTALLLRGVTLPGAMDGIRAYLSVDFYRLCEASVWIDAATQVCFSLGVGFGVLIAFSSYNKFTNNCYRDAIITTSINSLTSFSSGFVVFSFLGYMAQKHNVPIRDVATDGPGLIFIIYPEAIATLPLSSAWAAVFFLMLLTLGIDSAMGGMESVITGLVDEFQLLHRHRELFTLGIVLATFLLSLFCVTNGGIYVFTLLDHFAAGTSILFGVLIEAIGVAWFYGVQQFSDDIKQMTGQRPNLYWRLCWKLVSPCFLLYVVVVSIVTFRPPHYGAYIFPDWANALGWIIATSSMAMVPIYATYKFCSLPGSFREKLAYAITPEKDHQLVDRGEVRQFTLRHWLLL
UniProt P27338, whole entry: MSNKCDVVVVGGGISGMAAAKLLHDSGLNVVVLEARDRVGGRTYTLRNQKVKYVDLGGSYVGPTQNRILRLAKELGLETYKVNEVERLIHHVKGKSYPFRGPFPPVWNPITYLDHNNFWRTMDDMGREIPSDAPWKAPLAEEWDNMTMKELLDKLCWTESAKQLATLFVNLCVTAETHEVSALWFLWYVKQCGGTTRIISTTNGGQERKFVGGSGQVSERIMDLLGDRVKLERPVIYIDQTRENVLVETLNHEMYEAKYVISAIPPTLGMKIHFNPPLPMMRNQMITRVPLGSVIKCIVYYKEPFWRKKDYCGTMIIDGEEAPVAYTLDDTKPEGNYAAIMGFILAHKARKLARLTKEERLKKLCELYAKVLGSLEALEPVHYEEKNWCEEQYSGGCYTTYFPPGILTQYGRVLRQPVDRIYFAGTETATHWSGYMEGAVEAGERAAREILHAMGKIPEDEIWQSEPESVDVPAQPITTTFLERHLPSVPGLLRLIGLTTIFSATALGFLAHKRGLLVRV

According to US6375979B2 (dated 2002):

Legend:
MAO-B [1] = target: T1, MAO-B (Cavia porcellus, UniProt P58028); experiment: In vivo brain MAO-B inhibition in guinea pig hippocampus after 5 days of administration; conditions: for ED50: guinea pig, sc
MAO-B [2] = target: T1, MAO-B; experiment: MAO-B inhibition in guinea pig hippocampal homogenates in vitro; type: biochemical; conditions: read-out: MAO-B % Inhibition x ± SEM
γ-interferon production = γ-interferon production by concanavalin A-stimulated spleen cells of treated old rats; type: in vivo, rat; conditions: most dramatic increases at 1.0 mg/kg body weight
[3] = target: dopamine re-uptake system (Rattus norvegicus, UniProt P23977); experiment: Inhibition of dopamine re-uptake in rat neostriatal synaptosome preparation; conditions: read-out: IC50, concentration needed to inhibit dopamine uptake by 50%; determined graphically, FIG. 18
MAO-B [4] = target: T2, MAO-B (Homo sapiens, UniProt P27338)
MAO-B [5] = target: T2, MAO-B; conditions: cited from earlier work

Compound | ED50 (MAO-B [1]; read-out: ID50 for MAO-B in Guinea Pig Hippocampal Cortex, once a day for 5 days, subcutaneous, larger group of animals, FIG. 20) | ED50 (MAO-B [1]; read-out: ID50 for brain MAO-B, preliminary studies, once a day for five days, subcutaneous) | inhibition at 0.3 µM (MAO-B [2]) | times less potent than selegiline, preliminary studies (MAO-B [1]; brain MAO-B in vivo) | times less potent than selegiline as an inhibitor of MAO-B, more recent studies (MAO-B [1]; brain MAO-B in vivo, larger group of animals) | γ-interferon levels in old rats after administration (γ-interferon production) | IC50 [3] | times more potent than S(+)DMS as an MAO-B inhibitor (MAO-B [4]) | MAO-B inhibitory effect in vivo as a fraction of selegiline's (MAO-B [5])
C#CCN(C)[C@H](C)Cc1ccccc1 [Selegiline, R-(−)-N-methyl-N-(prop-2-ynyl)-2-aminophenylpropane, reference compound] | ~0.008 mg/kg | 0.03 mg/kg | 98.8 ± 0.5% | – | – | – | – | – | –
desmethylselegiline | – | – | – | about 10 times | about 25 times | restoration of γ-interferon levels | ~100 µM | 20-35 times | about one-fifth

Where two headings read alike, the source gives them in different places.
